Results from BindingDB's records for doi:10.1038/305140a0 (College of France, 1983).

Sequences of proteins named here, by UniProt entry; tags and fusion partners are left off.
UniProt P19327, whole entry: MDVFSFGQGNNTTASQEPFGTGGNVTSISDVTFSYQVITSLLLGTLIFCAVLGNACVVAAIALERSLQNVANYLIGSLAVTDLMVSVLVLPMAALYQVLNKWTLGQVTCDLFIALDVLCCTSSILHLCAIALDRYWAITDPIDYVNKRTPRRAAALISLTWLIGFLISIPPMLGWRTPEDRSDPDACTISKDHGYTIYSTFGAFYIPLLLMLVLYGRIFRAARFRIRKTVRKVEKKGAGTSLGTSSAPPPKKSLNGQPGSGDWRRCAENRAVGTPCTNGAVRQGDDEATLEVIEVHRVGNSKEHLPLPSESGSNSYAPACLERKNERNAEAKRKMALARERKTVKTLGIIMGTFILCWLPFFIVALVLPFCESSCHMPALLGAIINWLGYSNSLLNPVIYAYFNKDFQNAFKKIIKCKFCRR

Biological target: 5-hydroxytryptamine receptor 1A (Rattus norvegicus, UniProt P19327)

COc1ccc2[nH]cc(C3=CCNCC3)c2c1 [5-Methoxy-3-(1,2,3,6-tetrahydro-pyridin-4-yl)-1H-indole(RU-24969)]
Ki: 9.77 nM

NCCc1c[nH]c2ccc(O)cc12 [[3H]-5-HT]
Ki: 46.8 nM
